One molecule from PMC10850085 (2024) can be followed below.

Chains of the proteins cited; added tags and fusions are not shown. Residues count along the entry.
UniProt P40226, 22-356: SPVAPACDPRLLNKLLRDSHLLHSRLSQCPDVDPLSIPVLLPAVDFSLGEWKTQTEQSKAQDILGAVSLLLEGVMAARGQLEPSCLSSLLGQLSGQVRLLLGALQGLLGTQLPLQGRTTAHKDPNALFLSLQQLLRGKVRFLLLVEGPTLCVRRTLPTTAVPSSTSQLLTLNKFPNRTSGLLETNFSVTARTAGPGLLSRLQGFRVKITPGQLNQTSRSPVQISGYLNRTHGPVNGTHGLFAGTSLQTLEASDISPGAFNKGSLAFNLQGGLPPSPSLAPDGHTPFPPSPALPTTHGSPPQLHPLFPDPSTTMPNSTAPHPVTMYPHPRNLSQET

Assay [1] has as its target T1, full-length murine Thrombopoietin (Tpo) (mouse, UniProt P40226 22-356, heavily glycosylated). Put plainly: SPR; Tpo over immobilised TpoR. For orientation: SPR reads the build-up and loss of mass on a sensor chip optically.
The target of assay [2] is T1, full-length murine Thrombopoietin (Tpo). Kind of assay: SPR; TpoR over immobilised Tpo.
The target is the same in assay [3]. Put plainly: SPR; Tpo over immobilised TpoR. The source holds these as a separate data set.
For assay [4] the target is unchanged. Put plainly: SPR; TpoR over immobilised Tpo. The source holds these as a separate data set.

B1: murine TpoR ectodomain, monomeric (TpoR_(1-479)) (receptor)
chain: QDVFLLALGTEPLNCFSQTFEDLTCFWDEEEAAPSGTYQLLYAYRGEKPRACPLYSQSVPTFGTRYVCQFPAQDEVRLFFPLHLWVKNVSLNQTLIQRVLFVDSVGLPAPPRVIKARGGSQPGELQIHWEAPAPEISDFLRHELRYGPTDSSNATAPSVIQLLSTETCCPTLWMPNPVPVLDQPPCVHPTASQPHGPAPFLTVKGGSCLVSGLQAGKSYWLQLRSQPDGVSLRGSWGPWSFPVTVDLPGDAVTIGLQCFTLDLKMVTCQWQQQDRTSSQGFFRHSRTRCCPTDRDPTWEKCEEEEPRPGSQPALVSRCHFKSRNDSVIHILVEVTTAQGAVHSYLGSPFWIHQAVLLPTPSLHWREVSSGRLELEWQHQSSWAAQETCYQLRYTGEGREDWKVLEPSLGARGGTLELRPRARYSLQLRARLNGPTYQGPWSAWSPPARVSTGSE
modifications: N-linked glycans at N117, N178, N349; tryptophan mannosylation (W465, W468)
What is called koff is a measure of how fast the partners let go of each other. Read a low koff as a long-lived complex. A word on the Kd: it is the concentration at which binding is half-saturated. With B1, the koff in assay [1] came out at 0.007 s⁻¹; in assay [2] it was 0.022 s⁻¹. For the same molecule, the figures for the dissociation constant (Kd) in assay [3] and in assay [4] were 3 nM and 120 nM, respectively.
